# Experimental data taken from paper PMC10400593, “Molecular insights into Spindlin1-HBx interplay and its impact on HBV transcription from cccDNA minichromosome” (Nature Communications, 2023).
# What was measured:
# [1] = biological target: human Spindlin1_50–262 (Homo sapiens, UniProt Q9Y657); format: binding; design: Human Spindlin1_50–262 was cloned into pGEX-6P-1 vector containing an N-terminal GST tag; GST (N, cleaved yes); made in house; host or cells: E. coli BL21(DE3); conditions: free wild-type Spindlin1_50–262
# Protocol: Cells were harvested and lysed in lysis buffer: 0.2 M NaCl, 20 mM Tris, pH 8.0 containing 1 mM fresh PMSF. After centrifugation, the GST-tagged Spindlin1_50–262 was purified by a GST affinity column and then the GST tag was cleaved on-column by a home-made P3C protease overnight. The tag-free protein was collected for an anion-exchange chromatography over a HiTrap Q HP column and Superdex G75 columns (GE Healthcare). The Spindlin1_50–262 protein was concentrated to 25 mg/ml in 0.15 M NaCl, 20 mM Tris, pH 8.0, aliquoted and stored at −80 °C for future use. All Spindlin1_50–262 mutants were generated by the QuikChange site-directed mutagenesis strategy and purified using the same procedure as described above.
# (§1) Calorimetric experiments were conducted at 25 °C with a MicroCal PEAQ-ITC instrument (Malvern Instruments) as previously described. The Spindlin1_50–262 samples were extensively dialyzed against the buffer containing 20 mM HepesNa (pH 7.5) and 150 mM NaCl. Protein concentration was determined by absorbance spectroscopy at 280 nm. Peptide concentrations were determined by weighing in large quantities. Each ITC titration consisted of 17 successive injections with 0.4 μl for the first and 2.4 μl for the rest. The intervals between injections were 180 s, and the stirring speed was 750 rpm. […] Acquired calorimetric titration data were fitted at 95% confidence and analyzed using Origin 7.0 (GE Healthcare) using the One Set of Binding Sites fitting model. Data represent the mean ± SE. Detailed thermodynamic parameters of each titration are summarized in the Supplementary Table 2.
# [2] = biological target: Spindlin1_50-262 & HBx2-21 (Homo sapiens, UniProt Q9Y657); conditions: versus free Spindlin1_50–262
# Protocol: Cells were harvested and lysed in lysis buffer: 0.2 M NaCl, 20 mM Tris, pH 8.0 containing 1 mM fresh PMSF. […] The tag-free protein was collected for an anion-exchange chromatography over a HiTrap Q HP column and Superdex G75 columns (GE Healthcare).
# as §1, with “Protein” for “Calorimetric experiments were conducted at 25 °C with a MicroCal PEAQ-ITC instrument (Malvern Instruments) as previously described. The Spindlin1_50–262 samples were extensively dialyzed against the buffer containing 20 mM HepesNa (pH 7.5) and 150 mM NaCl. Protein”
# [3] = test system: Spindlin1; test: Co-immunoprecipitation of Flag-Spindlin1 with HA-HBx, HEK 293 T cells; format: cell-based, human; conditions: anti-Flag M2 beads, WB
Substance,Binding in words (ITC) [1],Change of histone peptide affinity on HBx2–21 engagement [2],other results
"AARLCCQLDPARDVLCLRPV-NH2 [HBx-D2-21, HBx-D N-terminal motif peptide]",micromolar level binding,–,–
"AARLCCQLDSARDVLLLRPF-NH2 [WHx, woodchuck HBx N-terminal motif peptide]",micromolar level binding,–,–
"AARLCCQLDSSRDVLLLRPL-NH2 [GSHBx, ground squirrel HBx N-terminal motif peptide]",micromolar level binding,–,–
ARTK(m e3)QTAR(me2a)KSTGGKAPRKQL-NH2 [H31-20 K4me3R8me2a],–,unchanged affinities,–
ARTK(m e3)QTARK(me2)STGGKA-NH2 [H31-15 K4me3K9me2],–,about threefold enhancement in binding,–
Ac-GKGGAKRHRK (me3)VLRDNIQGIT-NH2 [H411-30 K20me3],–,unchanged affinities,–
HBx: full-length HA-tagged WT HBx,–,–,Interaction with Spindlin1 (Co-IP) [3]: confirmed in HEK 293 T cells by immunoprecipitation assay
